Test results from patent US11806350B2, “Prevention and/or treatment of CNS disorders” (ILDONG PHARMACEUTICAL CO., LTD., priority 2020, dated 2023).

The chains behind the UniProt entries cited, without tags or fusion partners.
UniProt P30542, whole entry: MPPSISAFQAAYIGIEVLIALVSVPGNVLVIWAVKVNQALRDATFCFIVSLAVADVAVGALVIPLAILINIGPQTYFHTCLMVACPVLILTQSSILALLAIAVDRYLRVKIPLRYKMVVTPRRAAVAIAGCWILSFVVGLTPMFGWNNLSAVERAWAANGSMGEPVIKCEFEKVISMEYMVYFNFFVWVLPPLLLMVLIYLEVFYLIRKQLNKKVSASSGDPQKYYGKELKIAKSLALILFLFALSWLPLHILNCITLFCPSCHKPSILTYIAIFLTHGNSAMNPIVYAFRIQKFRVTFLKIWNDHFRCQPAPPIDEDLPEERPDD

Experiments:
[1] = target: Human recombinant adenosine A1 receptors (Homo sapiens, UniProt P30542); assay: Human adenosine A1 receptor binding assay ([3H]DPCPX); conditions: read-out: hAl Ki; membranes of CHO-K1 cells, 1 nM [3H]DPCPX, 90 minutes at 25° C.
Experimental: 2.1 Human Adenosine A1 Receptor Binding Assay
Test compound is weighed, dissolved in DMSO to make a stock solution of 10 mM, diluted with DMSO to prepare working solutions, then 100-fold diluted to the indicated concentrations. Human recombinant adenosine A1 receptors expressed in CHO-K1 cells were used to prepare membranes in incubation buffer (20 mM HEPES (4-(2-hydroxyethyl)-1-piperazineethanesulfonic acid) pH 7.4, 10 mM MgCl2, 100 mM NaCl). Test compound or vehicle (2.2 μL) was added in 200 μL of membranes and incubated with 20 μL of 1 nM [^3H] DPCPX (8-cyclopentyl-1,3-dipropylxanthine) for 90 minutes at 25° C. Non-specific binding was estimated in the presence of 100 μM R(−)-PIA ((R)—N-(1-methyl-2-phenylethyl)adenosine). The incubation was stopped by vacuum filtration onto 0.3% PEI (polyethylenimine) presoaked GF/B filters using a harvester followed by four washes with ice-cold 50 mM Tris-HCl, pH 7.4, and the radioactivity on GF/B filtermats counted in a scintillation counter (PerkinElmer Topcount™) to determine [^3H] DPCPX specifically bound. Final concentration of vehicle DMSO is 1%.
Data is fitted using the non-linear curve fitting routines in Meth-IQ software (ID Business Solutions Ltd., UK). IC50 is converted to Ki by Cheng-Prusoff equation: Ki=IC50/(1+[L]/KD) where [L] is concentration of radiolabeled ligand used in the assay.

[2] = target: Human recombinant adenosine A2A receptors (Homo sapiens, UniProt P29274); assay: Human adenosine A2A receptor binding assay ([3H]CGS-21680)

N#Cc1cccc(-c2nc(N)nc3c2cnn3Cc2c(F)cc(N)cc2F)c1F
Ki [1]: < 100 nM
Ki ([2]; read-out: hA2A Ki, membranes of HEK-293 cells, 50 nM [3H]CGS-21680, 90 minutes at 25° C.): < 20 nM
activity as dual antagonists of both A2A and A1 receptors ([2]; summary in words of the A2A and A1 binding results of Table 2): potent activity as dual antagonists
